# Test results reported in patent US11312682B2, “Selective inhibitors of carbonic anhydrase” (VILNIUS UNIVERSITY, priority 2015, dated 2022).
# Molecular target: human recombinant CA II (Homo sapiens, UniProt P00918)
# Test: Fluorescent thermal shift assay (FTSA), binding to CA II
# Conditions: Table 1; FTSA at 37° C. and pH 7.0; read-out: Dissociation constants, CA II
substance,measurement,value
"2,4-dichloro-5-[2-(5-methoxybenzimidazol-1-yl)acetyl]benzenesulfonamide and 2,4-dichloro-5-[2-(6-methoxybenzimidazol-1-yl)acetyl]benzenesulfonamide [Compound 31]",Kd,0.5 µM
